{
  "source": "PubChem BioAssay AID1964107",
  "about": "(National Center for Advancing Translational Sciences (NCATS), 2024)",
  "note": "This is a selection; strong and weak results do not stand in their true shares. Some results for these compounds are left out of this collection, so the calls shown say nothing about other tests. Inconclusive results are not listed. The source made the active and inactive calls. Calls come from the whole dose curve. % is set by controls: 0 for no effect and ±100 for the full control effect.",
  "data": [
    {"molecular_target": "Polyprotein P1234 (Chikungunya virus (strain S27-African prototype)) (UniProt Q8JUX6)", "assay": "Primary qHTS for inhibitors of NSP2Pro chikungunya virus (CHIKV); note: nearly all actives have a fitted effect of over 60% in size", "conditions": "FRET peptide cleavage, fluorescence 1 h; at 24.9 µM (top of the series)", "values": [
      {"smiles": "CN(C)C1(CNC(=O)c2ccccc2F)CCCCC1", "activity change, negative = inhibition": "inactive: 29.8%"},
      {"smiles": "CN(C)C1(CNC(=O)c2cccc(Cl)c2)CCCCC1", "activity change, negative = inhibition": "inactive: 2.33%"},
      {"smiles": "O=C(C1CCC1)N1CCN(C/C=C/c2ccccc2)CC1", "activity change, negative = inhibition": "inactive: -0.384%"},
      {"smiles": "CCOc1cccc(C(=O)NCC2(N(C)C)CCCCC2)c1", "activity change, negative = inhibition": "inactive: -7.79%"},
      {"smiles": "CCCCOc1ccccc1C(=O)NCC1(N(C)C)CCCCC1", "activity change, negative = inhibition": "inactive: -15%"},
      {"smiles": "CN(C)C1(CNC(=O)c2ccccc2[N+](=O)[O-])CCCCC1", "activity change, negative = inhibition": "inactive: -15%"},
      {"smiles": "COc1ccc(C(=O)NCC2(N(C)C)CCCCC2)cc1Cl", "activity change, negative = inhibition": "inactive: 0.528%"},
      {"smiles": "CC(C)Oc1ccc(C(=O)NCC2(N(C)C)CCCCC2)cc1", "activity change, negative = inhibition": "inactive: 25.1%"},
      {"smiles": "COc1cc(C(=O)NCC2(N(C)C)CCCCC2)cc(OC)c1OC", "activity change, negative = inhibition": "inactive: 24.2%"},
      {"smiles": "Cc1cccc(C(=O)NCC2(N(C)C)CCCCC2)c1", "activity change, negative = inhibition": "inactive: -4.15%"},
      {"smiles": "CC(C)COc1ccc(C(=O)NCC2(N(C)C)CCCCC2)cc1", "activity change, negative = inhibition": "inactive: 4.29%"},
      {"smiles": "COc1cccc(C(=O)NCC2(N3CCOCC3)CCCCC2)c1", "activity change, negative = inhibition": "inactive: -17.2%"}
    ]}
  ]
}
